Experimental data reported in patent US7776897B2, “Triazole derivative or salt thereof” (Astellas Pharma Inc., priority 2004, dated 2010).

Chains of the proteins cited; added tags and fusions are not shown.
UniProt P28845, whole entry: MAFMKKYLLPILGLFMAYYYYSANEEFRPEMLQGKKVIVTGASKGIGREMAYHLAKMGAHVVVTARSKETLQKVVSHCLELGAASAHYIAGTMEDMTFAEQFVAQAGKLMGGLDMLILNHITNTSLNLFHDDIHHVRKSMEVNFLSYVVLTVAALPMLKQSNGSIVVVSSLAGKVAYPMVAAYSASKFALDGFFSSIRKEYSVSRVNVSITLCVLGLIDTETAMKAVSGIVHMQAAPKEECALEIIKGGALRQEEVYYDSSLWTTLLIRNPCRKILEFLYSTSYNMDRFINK
UniProt P80365, whole entry: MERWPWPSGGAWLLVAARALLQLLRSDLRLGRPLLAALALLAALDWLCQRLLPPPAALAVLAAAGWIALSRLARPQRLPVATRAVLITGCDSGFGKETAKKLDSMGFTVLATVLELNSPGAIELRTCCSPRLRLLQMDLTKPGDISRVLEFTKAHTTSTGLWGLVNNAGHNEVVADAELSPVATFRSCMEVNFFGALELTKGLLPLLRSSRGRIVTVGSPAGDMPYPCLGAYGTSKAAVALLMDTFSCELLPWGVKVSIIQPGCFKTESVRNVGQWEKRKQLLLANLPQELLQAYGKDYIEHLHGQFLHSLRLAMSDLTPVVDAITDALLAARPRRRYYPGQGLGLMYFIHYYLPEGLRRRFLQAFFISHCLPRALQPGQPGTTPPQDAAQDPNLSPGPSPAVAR

Experiments:
[1] = target: human recombinant 11β-HSD1 (Homo sapiens, UniProt P28845); experiment: Test for measuring human 11β-HSD1 inhibitory activity (HTRF cortisol detection); settings: read-out: Human 11β-HSD1 (IC50/μM); human recombinant enzyme, 200 nM cortisone, 40 μM NADPH, pH 6.6, room temperature 1 hour; average of 3 wells
Experimental: (§1) (1) Test for Measuring Human 11β-HSD1/11β-HSD2 Inhibitory Activity
(§2) The procedure for measuring human 11β-HSD1/11β-HSD2 inhibitory activity is as follows. The enzymatic reaction and measurement were performed using a 384-well plate. The reaction was carried out by adding a test compound in various concentrations to a reaction solution containing a 10 mM phosphate buffer solution (pH 6.6), 200 nM cortisone, 40 μM reduced nicotinamide adenine dinucleotide phosphate (NADPH), and human recombinant 11β-HSD1 and then incubating the mixture at room temperature for 1 hour (10 μl/well). The test compound was dissolved in dimethyl sulfoxide (DMSO) to prepare a sample so that the DMSO concentration in the reaction solution became 1%. After the enzymatic reaction, an enzymatic inhibitory activity was measured by detecting cortisol using homogeneous time-resolved fluorescence (HTRF). […] Then, fluorescence intensity was measured using a fluorophotometer (product name: Discovery, PerkinElmer) and an enzymatic inhibitory activity was calculated based on two-wavelength fluorescence intensity ratio (665 nm/620 nm).
(§3) The results of the measurement were calculated as an average of the values for 3 wells obtained under the same conditions.

[2] = target: human recombinant 11β-HSD2 (Homo sapiens, UniProt P80365); experiment: Test for measuring human 11β-HSD2 inhibitory activity (HTRF cortisol detection); settings: read-out: Human 11β-HSD2 (IC50/μM); human recombinant enzyme, 200 nM cortisol, 200 μM NAD, pH 8.0, 37° C. 2 hours; average of 3 wells
Experimental: as §1
as §2, with “nm). […]” for “nm).”
as §3

IC50 [1]: 0.0052 µM
IC50 [2]: > 1 µM
SMILES: CC(C)(c1ccc(Cl)s1)c1nnc2n1CCCCCC2
